According to patent US20180280465A1 (EVER Neuro Pharma GmbH, priority 2015, published 2018):

Tested on: NIH/3T3 murine fibroblasts
Experiment: Resazurin-fibroblast-assay for assessment of cytotoxicity

CN1CCc2cccc3c2[C@H]1Cc1ccc(O)c(O)c1-3 [apomorphine, (6aR)-6-methyl-5,6,6a,7-tetrahydro-4H-dibenzo[de,g]quinoline-10,11-diol]
cytotoxic effect / viability of cultivated NIH/3T3 cells: time and concentration dependent reduction of viability
